The results in this text go back to patent US9771331B2, “Methods of identifying neuroprotective compounds for retinal ganglion cells” (THE JOHNS HOPKINS UNIVERSITY, priority 2005, dated 2017).

For test [1], the system named is retinal ganglion cells (RGCs). Description: Overall cell survival of cultured RGCs after 120 hours. Type of test: cell-based, rat. As to conditions: 50 ng/ml. How it is done:
The purified Thy-1 immunoreactive cells are resuspended in growth media (Neurobasal media, B27 supplement, 2 mM glutamine, and 1 U/ml penicillin/streptomycin) and quantified using a hematocytometer. Cells are seeded in 100 μl at a density of 4000 cells/well (150/mm^2) in 96 well culture dishes (Falcon) that had been sequentially coated with poly-d-lysine (0.01 mg/ml) and laminin (0.01 μg/μl) (Sigma). Each well either contains 25 μl of media alone or 5× drug or 5×BDNF and forskolin. Final concentrations are: DMSO (1%), drug (20 to 30 μM), BDNF (50 ng/ml) and forskolin (10 μM). Culture dishes are placed in an incubator maintained at 37° C. and 5% CO2. One hour after seeding, a post-seeding viability is determined by staining with Hoechst and TOTO3 and calculating the percent of live cells.
(§1) After 120 hours of incubation, cells are stained with 5 μM Hoechst and 10 μM Calcein AM (Molecular Probes). […] Cleavage of the AM group occurs spontaneously when calcein AM is suspended in aqueous solution resulting in a significant increase in background fluorescence over time. […]
Images are processed using the Cellomics Extended Neurite Outgrowth software program. […] In addition, each nuclei on the Hoechst channel is matched to a calcein-stained cell and counted as a “valid neuron” (i.e., a live cell). […]

The test system of test [2] is retinal ganglion cells (RGCs). Put plainly: High-content neurite outgrowth screen of purified retinal ganglion cell cultures (number of outgrowth neurons). It is filed as cell-based, rat. As to conditions: 50 ng/ml, 120 hours. As for the experimental part:
Retinal ganglion cell harvest and immunopurification are performed as described above and in the specific Examples, below. A concentration range of neuroprotective compounds to be validated is prepared and added to test wells (e.g., to achieve final concentrations of 3 μM, 10 μM, 15 μM, 30 μM, 60 μM, 90 μM, 120 μM, and 150 μM in 1% DMSO in each well). For a neuroprotective compound obtained from the DIVERSET™ library, for example, 1 mg of desiccated compound can be resuspended in 22.2 μl of DMSO to a final stock solution of 150 mM. […] Afterwards, the solution can be stored in the dark at −20° C. […]
The purified Thy-1 immunoreactive cells are resuspended in growth media (Neurobasal media, B27 supplement, 2 mM glutamine, and 1 U/ml penicillin/streptomycin) and quantified using a hematocytometer. […] One hour after seeding, a post-seeding viability is determined by staining with Hoechst and TOTO3 and calculating the percent of live cells.
as §1
Fifteen stereotypic field are autofocus imaged on a Cellomics KINETICSCAN® High Content Scan Reader using epifluorescence and filter sets corresponding to each of the two dyes. […]

“Also recorded” adds a separate entry of the source.

B1: BMP2: bone morphogenetic protein, member of the TGFβ superfamily (protein, UniProt P12643 283-396, looked up)
Bone morphogenetic protein 2: QAKHKQRKRLKSSCKRHPLYVDFSDVGWNDWIVAPPGYHAFYCHGECPFPLADHLNSTNHAIVQTLVNSVNSKIPKACCVPTELSAISMLYLDENEKVVLKNYQDMVVEGCGCR
For the molecule B1, the “overall cell survival (number of surviving cells)” value in test [1] was “no effect”. Also, the “outgrowth count ratio (mean fold-change from control)” value in test [2] (normalized to medium only) was found to be 1.61±0.80. In test [2] (versus cultures grown in medium only), the “number of outgrowth neurons” value is on record as “significantly increased; also recorded: Statistically significant increases”.
